Source: patent US8460894B2, “Calcium-sensing receptor 2 (CaR2) and methods for using” (ABT Holding Company, priority 2002, dated 2013)

Molecular target: T1, CaR2 (Homo sapiens, UniProt Q5T6X5, P91S)
T1 construct: molecular acquisition of the full-length cDNA led to the identification of the six coding exons; expressed in transfected cells
T1 sequence (Q5T6X5 19-926 P91S): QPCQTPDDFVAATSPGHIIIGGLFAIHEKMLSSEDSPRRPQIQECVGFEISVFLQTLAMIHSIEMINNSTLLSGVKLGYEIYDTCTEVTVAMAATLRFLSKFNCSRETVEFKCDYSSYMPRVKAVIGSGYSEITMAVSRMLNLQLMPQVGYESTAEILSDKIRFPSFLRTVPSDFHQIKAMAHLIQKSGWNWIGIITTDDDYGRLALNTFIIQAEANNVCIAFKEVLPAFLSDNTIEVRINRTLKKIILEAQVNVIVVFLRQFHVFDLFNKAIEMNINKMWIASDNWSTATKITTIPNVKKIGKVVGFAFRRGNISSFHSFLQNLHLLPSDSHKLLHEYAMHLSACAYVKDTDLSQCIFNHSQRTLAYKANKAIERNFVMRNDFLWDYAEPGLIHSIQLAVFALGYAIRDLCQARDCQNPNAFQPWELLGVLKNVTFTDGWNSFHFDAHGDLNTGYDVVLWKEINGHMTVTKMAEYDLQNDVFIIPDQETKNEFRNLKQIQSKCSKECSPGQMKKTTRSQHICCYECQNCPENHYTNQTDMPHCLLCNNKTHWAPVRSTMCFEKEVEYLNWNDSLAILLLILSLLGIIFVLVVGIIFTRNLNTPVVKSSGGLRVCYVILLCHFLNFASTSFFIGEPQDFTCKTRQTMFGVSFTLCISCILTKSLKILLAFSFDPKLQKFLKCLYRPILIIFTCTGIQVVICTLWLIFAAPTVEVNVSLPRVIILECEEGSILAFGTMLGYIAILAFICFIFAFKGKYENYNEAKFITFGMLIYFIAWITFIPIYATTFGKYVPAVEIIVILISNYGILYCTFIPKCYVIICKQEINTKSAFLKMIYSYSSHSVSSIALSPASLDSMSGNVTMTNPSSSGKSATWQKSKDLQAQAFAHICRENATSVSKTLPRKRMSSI
Experiment: FLIPR intracellular Ca^++ assay in HEK293 clone expressing CaR2 (HEK-167B12-2.1)
Format: cell-based
Details: either ligand (BMP-2 or CT) added alone, absence of calcium
Procedure: To facilitate pharmacological experimentation, CaR2 cDNA was cloned into the mammalian expression vector pcDNA 3.1 (+) Neo with or without a COOH-terminal FLAG epitope. The transgene was introduced into the HEK293 cell line and stable transfectants were identified. These clones were analyzed for CaR2 expression by qPCR and Western blotting to identify those clones that were suitable for ligand identification. The clone HEK-167B12-2.1 was chosen for further experimentation.
Based on the homology to the characterized goldfish odorant receptor 5.24, initial studies investigated the ability of 18 naturally occurring amino acids to trigger changes of intracellular Ca^++ levels in the transfected cells, as measured with a fluorescent imaging plate reader (FLIPR).
Intracellular Ca^++ was measured using a fluorometric imaging plate reader (FLIPR) [Molecular Devices]. Cells were seeded at a density of 1×10^5/well (96-well plate) or 1×10^4/well (384-well plate) in collagen coated plates and incubated overnight at 36.9° C. with 5% CO2. Medium was aspirated from the plates and replaced with equal volumes of a no wash calcium dye (Molecular Devices) and modified Hank's buffered saline solution [Ca^2+-free, Mg^2+-free] […] FLIPR was used to measure changes in intracellular calcium as relative fluorescence upon activation by ligand.

intracellular Ca^++ in the CaR2 clone: not seen
Substance: BMP-2: bone morphogenic peptide, agent known to modulate bone metabolism
